From US20180000778A1, “SMALL MOLECULE ANTAGONISTS OF DUSP5 AND METHODS OF USE” (THE MEDICAL COLLEGE OF WISCONSIN, INC., priority 2015, published 2018) come the findings set out here.

The assay deals with T1, DUSP5 (PD)-WT (Homo sapiens, UniProt Q16690).
T1 construct: hexa-histidine (N); made in house; host or cells: E. coli BL21(DE3)
T1 sequence (Q16690 178-319): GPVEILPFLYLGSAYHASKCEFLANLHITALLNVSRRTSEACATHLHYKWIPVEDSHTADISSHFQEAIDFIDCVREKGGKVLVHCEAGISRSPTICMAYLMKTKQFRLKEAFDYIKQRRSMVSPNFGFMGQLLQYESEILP
The assay is described as follows: Phosphatase inhibition profiles (Table 4), initial rates. Format: biochemical. The note with it: read-out: IC50 DUSP5 (PD)-WT (mean ± SE).

Where only a bound is given, the exact number is not on record here.

On to `Nc1cccc2c(O)cc(S(=O)(=O)O)cc12` [RR535], for which the IC50 was over 1000 µM.

What is called IC50 is the concentration at which inhibition is half-maximal.
